Experimental data: ChEMBL document CHEMBL1148673, “Peptidomimetic C5a receptor antagonists with hydrophobic substitutions at the C-terminus: increased receptor specificity and in vivo activity” (Bioorg Med Chem Lett, 2006)

Species: Homo sapiens
Test: Selectivity for C5aR over NK2 receptor

Ratio IC50: 18
Compound: CC(C)CC[C@H](NC(=O)[C@@H]1CCCN1C(=O)[C@H](CCCN)NC(=O)[C@H](Cc1ccccc1)NC(=O)[C@@H]1CC(=O)NC(=O)N1)C(=O)N[C@@H](Cc1ccc(F)cc1)C(=O)N[C@H](Cc1ccccc1)C(N)=O
